# In the library only some 2.1% were active in any assay of this set; here they are far more common.
# SMARCA2 activ: activators of SMARCA2 function | MG213 cells, MMTV-luciferase reporter, dexamethasone, overnight | activation, % at 9.1 µM | 370,000 tested, 1% active; in the data active means activation above about 7.8%;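 further: 0% = vehicle wells and 100% = reference activator wells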
# Rev-erbA mod: modulates human Rev-erb alpha binding to DNA; P20393; Rev-erbα–FITC-DNA binding, fluorescence polarization, 90 min; activity, % at 10 µM; 370,000 tested, 0.79% active; AID 1259318;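 active means activity above about 14%, limit read from the data; passing the limit was not always enough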;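 further: 0% = DMSO wells with 35 nM protein and 100% = DMSO wells with 750 nM protein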
# ERp5 block: inhibitors of human ERp5; ERp5 insulin aggregation, absorbance 650 nm, 90 min; AID 651711; 350,000 tested, 0.05% active; inhibition, % at 9.99 µM; Q15084;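 active means mean replicate inhibition above about 25%, with every replicate also reaching it, limit read from the data, passing the limit was not always enough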
# INS-1E GSIS act: GLuc luminescence reporter in INS-1E cells, primary screen for activators of glucose-dependent secretion of insulin; 370,000 tested, 0.61% active; activation, % at 16.6 µM; INS-1E GLuc reporter insulin secretion, 2-3 h;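 active means lowest replicate activation of at least 40%, so every replicate reaches that level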;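 further: 0% = median of neutral control wells and 100% = median of IBMX positive control wells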
# PDI inh: inhibitors of human protein disulfide isomerase; P07237; PDI insulin aggregation turbidity, A650, 90 min; inhibition, % at 10 µM; 350,000 tested, 0.052% active; AID 588391;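 active means mean inhibition across replicates of 30% or more, whatever share of single replicates reach that level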
# Yeast UUG start-1: yeast start codon fidelity modulation | S. cerevisiae UUG-firefly luciferase reporter, luminescence/redox ratio | activity score, % at 18.7 µM | hit rate 0.13% among 350,000 | AID 602363;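 active means replicate mean at a twofold rise or more, about +100% in these data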;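 further: firefly luciferase made from a UUG start codon reports start codon fidelity; reporter light over untreated wells divided by growth signal over untreated wells; some hits fall short of that in this replicate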
# Yeast UUG start-2: modulators of start codon recognition fidelity in yeast. shares compounds with Yeast UUG start-1. S. cerevisiae UUG-start firefly luciferase, luminescence, 4 h; 100% means double the DMSO signal. activation, % at 38 µM. 540 tested, under 10 active. AID 652061;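 active means signal increase whose fitted curve reaches an absolute level of 40 at a concentration under 10 µM; inactive means activity opposite to the expected increase, or the rest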
# The depositor's hits bear a star; i = inactive; / = not tested or not shown.
SMILES,SMARCA2 activ,Rev-erbA mod,ERp5 block,INS-1E GSIS act,PDI inh,Yeast UUG start-1,others
CC(C)CC#Cc1cnc2c(c1)C(=O)N([C@@H](C)CO)C[C@@H](C)[C@H](CN(C)Cc1ccccc1C(=O)O)O2,/,/,2.0,-6.4,/,34.3,
C[C@H]1CN([C@@H](C)CO)C(=O)c2cc(-c3cccc(C#N)c3)cnc2O[C@H]1CN(C)C(=O)C1CCC1,/,/,-2.4,5.8,/,-4.8,
O=c1[nH]c2cc3ccccc3cc2nc1-c1nnnn1C1CCCC1,-1.3,8.8,2.3,6.7,/,/,
O=c1[nH]c2ccccc2nc1-c1nnnn1C1CCCC1,-1.1,7.8,-2.1,49.3*,/,/,
C[C@H]1CN([C@@H](C)CO)C(=O)c2cc(NC(=O)Nc3ccc(F)cc3)ccc2O[C@@H]1CN(C)CC1CC1,/,/,-4.5,-14.1,/,/,
CN1C[C@@H](O)COC[C@@H]2O[C@H](CC(=O)N3CCN(c4ccccc4)CC3)CC[C@H]21,/,/,-2.3,1.0,/,-4.6,
O=C(Nc1ccc(F)cc1)N1CCCCN2[C@@H](CO)[C@@H](c3ccc(C#Cc4ccccc4)cc3)[C@@H]2C1,/,/,-0.6,44.2*,/,0.1,
O=C(c1cccc(F)c1)N1CCCCN2[C@H](CO)[C@@H](c3ccc(-c4ccc(F)cc4)cc3)[C@H]2C1,/,/,4.2,/,/,-16.4,
O=C(c1cccc(F)c1)N1CCCCN2[C@H](C1)[C@H](c1ccc(-c3ccccc3)cc1)[C@@H]2CO,/,/,28.4*,-19.8,/,-1.5,
COc1ccc(NC(=O)N(C)C[C@H]2Oc3ncc(C#CCC(C)C)cc3C(=O)N([C@@H](C)CO)C[C@@H]2C)cc1,/,/,-5.8,-9.2,/,4.2,
COc1cccc(OCc2nc3c4cnn(-c5ccccc5)c4ncn3n2)c1,0.4,-4.2,/,57.2*,-13.5,-14.6,
Cc1cc(-c2ccccc2)n2nc(N)nc2n1,-3.1,-6.4,-2.9,48.6*,2.8,-12.2,
NNc1nc(-c2ccccc2)c2cc(Br)ccc2n1,-1.1,0.6,1.0,48.8*,0.0,-20.1,
NNc1nc(-c2ccccc2)c2cc(Cl)ccc2n1,-3.4,-0.2,-1.0,35.6,1.3,/,
OCCCNc1nc(-c2ccccc2)c2cc(Br)ccc2n1,6.4,4.2,1.6,54.9*,-4.1,-15.4,
O=C(NCCN1CCCCC1)[C@H]1N[C@H]2c3ccc(-c4ccc(F)cc4)c(=O)n3C[C@H]2[C@@H]1CO,/,/,0.5,14.4,/,/,
COc1cc2sc3ccc(C#Cc4ccc(N)cc4)cc3c(=O)c2cc1OC,0.7,-1.1,/,58.2*,-0.9,-14.5,
COc1cc2sc3ccc(C#CC4(O)CCCCC4)cc3c(=O)c2cc1OC,7.8*,-1.5,1.1,5.0,1.6,7.3,
COc1ccc2c3c([nH]c2c1)[C@@H](CO)N(C(=O)Nc1ccccc1F)CC31CN(C(=O)C2CC2)C1,/,/,/,-2.1,/,/,
Cc1ccccc1-n1c(SCC(=O)N(C)C2CCS(=O)(=O)C2)nnc1-c1ccncc1 (stereo not drawn),-1.5,1.0,0.0,6.2,-1.6,-17.2,
Cc1ccccc1-n1c(SCC(=O)c2cc(C)n(C)c2C)nnc1-c1ccncc1,-2.0,-3.0,/,/,1.1,-18.0,Yeast UUG start-2=10.4
C[C@@H]1CCCCO[C@H](CN(C)CC2CC2)[C@H](C)CN([C@@H](C)CO)C(=O)c2cc(NC(=O)NC3CCCCC3)ccc2O1,/,/,-3.6,-4.1,/,/,
O=C(c1ccc(Cn2c(=O)[nH]c3ccccc3c2=O)cc1)N1CCN(c2ccccc2)CC1,-5.1,0.8,/,-13.9,3.9,479.9*,Yeast UUG start-2=14.7
O=C(COC(=O)Cc1ccc(Cl)cc1)Nc1ccccc1F,-2.1,-5.2,2.7,-0.2,1.1,/,

# No new results follow: entries from further up.
SMILES,SMARCA2 activ,Rev-erbA mod,ERp5 block,INS-1E GSIS act,PDI inh,Yeast UUG start-1,others
C[C@@H]1CCCCO[C@H](CN(C)CC2CC2)[C@H](C)CN([C@@H](C)CO)C(=O)c2cc(NC(=O)NC3CCCCC3)ccc2O1,/,/,-3.6,-4.1,/,/,
O=C(c1ccc(Cn2c(=O)[nH]c3ccccc3c2=O)cc1)N1CCN(c2ccccc2)CC1,-5.1,0.8,/,-13.9,3.9,479.9*,Yeast UUG start-2=14.7
O=C(COC(=O)Cc1ccc(Cl)cc1)Nc1ccccc1F,-2.1,-5.2,2.7,-0.2,1.1,/,

# More results follow:
SMILES,SMARCA2 activ,Rev-erbA mod,ERp5 block,INS-1E GSIS act,PDI inh,Yeast UUG start-1,others
O=C(COC(=O)Cc1ccc(Cl)cc1)Nc1c(F)cccc1F,3.9,2.7,2.2,10.5,-0.9,460.1*,Yeast UUG start-2=-4.9
O=C(NCc1nc2ccccc2[nH]1)C1=C[C@H](c2ccc(Br)cc2)C[C@H](OCCCCO)O1,/,/,-6.2,/,/,-15.5,
COc1cc(CC(=O)OCC(=O)Nc2ccc(S(=O)(=O)N3CCCC3)cc2)cc(OC)c1OC,1.4,1.0,/,/,-3.1,651.6*,Yeast UUG start-2=3.1
COc1ccc(CC(=O)Nc2ccc(S(=O)(=O)N3CCCC3)cc2)cc1OC,-3.1,-3.0,0.1,14.5,14.3,-8.9,
O=C(COC(=O)/C=C/c1ccc2c(c1)OCO2)Nc1ccc(S(=O)(=O)N2CCCC2)cc1,0.5,9.4,-0.7,5.8,14.3,/,
O=C(COC(=O)Cc1ccc2c(c1)OCCO2)Nc1ccc(S(=O)(=O)N2CCCC2)cc1,-1.0,2.4,/,/,-4.8,-5.2,Yeast UUG start-2=0.5
C[C@@H]1CN([C@H](C)CO)C(=O)c2cc(NC(=O)CCCCCC(=O)Nc3ccccc3N)ccc2O[C@@H]1CN(C)C(=O)Nc1ccc(F)cc1,/,/,4.4,-4.5,/,/,
C[C@H]1CN([C@@H](C)CO)C(=O)c2cc(NC(=O)CCN3CCOCC3)ccc2O[C@H]1CN(C)C(=O)Nc1ccccc1,/,/,6.2,18.0,/,-0.9,
C[C@H](CO)N1C[C@H](C)[C@H](CN(C)C(=O)CN(C)C)Oc2cc(C#CCC3CCCC3)ccc2S1(=O)=O,/,/,-3.3,-11.2,/,107.3*,Yeast UUG start-2=i
C[C@@H]1CN([C@H](C)CO)S(=O)(=O)c2ccc(C#CCC3CCCC3)cc2O[C@@H]1CN(C)C(=O)CN(C)C,/,/,2.5,-7.6,/,128.9*,Yeast UUG start-2=i
C[C@H](CO)N1C[C@H](C)[C@@H](CN(C)S(=O)(=O)c2cccs2)OCCCC[C@H](C)Oc2ccc(N(C)C)cc2C1=O,/,/,-1.2,5.0,/,33.4,
CC(=O)NCCCc1nc2ccccc2n1Cc1ccccc1F,-3.4,-5.2,-4.7,19.9,-1.2,173.7*,Yeast UUG start-2=-3.7

# Looked up one by one from the list above (2):
SMILES,SMARCA2 activ,Rev-erbA mod,ERp5 block,INS-1E GSIS act,PDI inh,Yeast UUG start-1,others
O=C(COC(=O)Cc1ccc2c(c1)OCCO2)Nc1ccc(S(=O)(=O)N2CCCC2)cc1,-1.0,2.4,/,/,-4.8,-5.2,Yeast UUG start-2=0.5
C[C@@H]1CN([C@H](C)CO)C(=O)c2cc(NC(=O)CCCCCC(=O)Nc3ccccc3N)ccc2O[C@@H]1CN(C)C(=O)Nc1ccc(F)cc1,/,/,4.4,-4.5,/,/,

# Further records
SMILES,SMARCA2 activ,Rev-erbA mod,ERp5 block,INS-1E GSIS act,PDI inh,Yeast UUG start-1,others
CC(=O)NCc1nc2ccccc2n1Cc1ccccc1F,-1.8,4.4,/,/,-9.6,-20.7,
CO[C@H]1CN(C)C(=O)c2cc(NC(=O)Nc3cc(Cl)cc(Cl)c3)ccc2OC[C@H](C)NC[C@H]1C,/,/,4.1,-4.3,/,/,
C[C@H]1CN([C@@H](C)CO)C(=O)c2cc(-c3cccc(C#N)c3)cnc2O[C@@H]1CN(C)Cc1ccc(F)cc1,/,/,-5.2,-4.5,/,0.7,
Cc1csc(NC(=O)c2ccco2)n1,2.2,-2.6,/,/,-26.8,-20.5,
O=C(O)Cc1csc(NC(=O)c2ccco2)n1,0.2,0.6,/,7.8,-4.1,373.0*,Yeast UUG start-2=10.2
CN(C)CC(=O)Nc1ccc2c(c1)[C@H]1C[C@H](CC(=O)NCCc3ccccc3)O[C@@H](CO)[C@H]1O2,/,/,1.4,5.0,/,4.6,
O=C(C[C@@H]1CC[C@H](NC(=O)c2cccc(F)c2)[C@@H](CO)O1)NCc1ccc(Oc2ccccc2)cc1,/,/,-0.5,5.5,/,144.6*,Yeast UUG start-2=i
CCCN(C)C[C@H]1Oc2cc(C3=CCCC3)ccc2S(=O)(=O)N([C@@H](C)CO)C[C@@H]1C,/,/,/,10.0,/,/,
CCCN(C)C[C@@H]1Oc2cc(C3=CCCCC3)ccc2S(=O)(=O)N([C@@H](C)CO)C[C@@H]1C,/,/,-2.9,2.7,/,155.9*,Yeast UUG start-2=i

# Bioassay records: PubChem BioAssay, several laboratories
